Chains of the proteins cited; added tags and fusions are not shown.
UniProt P05177, whole entry: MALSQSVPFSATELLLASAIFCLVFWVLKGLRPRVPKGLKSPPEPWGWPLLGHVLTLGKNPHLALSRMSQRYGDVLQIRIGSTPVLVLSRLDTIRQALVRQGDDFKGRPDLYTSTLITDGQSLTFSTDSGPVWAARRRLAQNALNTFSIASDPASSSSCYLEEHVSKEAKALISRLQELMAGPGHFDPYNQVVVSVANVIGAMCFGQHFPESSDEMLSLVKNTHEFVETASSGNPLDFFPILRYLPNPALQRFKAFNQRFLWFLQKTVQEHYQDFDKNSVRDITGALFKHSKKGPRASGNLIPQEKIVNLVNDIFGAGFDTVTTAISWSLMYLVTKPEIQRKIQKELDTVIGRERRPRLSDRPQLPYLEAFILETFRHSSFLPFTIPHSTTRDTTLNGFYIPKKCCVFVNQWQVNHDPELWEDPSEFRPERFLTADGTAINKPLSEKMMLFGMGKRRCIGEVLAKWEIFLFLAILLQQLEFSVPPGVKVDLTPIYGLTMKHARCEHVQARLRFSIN

In publication PMC4638363, “Linear Interaction Energy Based Prediction of Cytochrome P450 1A2 Binding Affinities with Reliability Estimation” (PLoS ONE, 2015):

Key:
human CYP 1A2 [1] = target: T1, human CYP 1A2 (Homo sapiens, UniProt P05177); settings: training set
human CYP 1A2 [2] = target: T1, human CYP 1A2; test: in-house CYP 1A2 inhibition assay with 7-methoxyresorufin as substrate (resorufin fluorescence)

O=c1cc(-c2ccccc2)oc2c1ccc1ccccc12 [Compound 7, alpha-Naphthoflavone] was tested, and the “Residual (ΔGbind^Obs—ΔGbind^Calc)” value (human CYP 1A2 [1]) was -1.3 kJ/mol, the ΔΔG bind (human CYP 1A2 [2]; difference in ΔG bind between literature and in-house determined values) was 2.4 kJ/mol and the “ΔG bind (inhouse)” value (human CYP 1A2 [2]; from in-house IC50 via Cheng-Prusoff and RTln(Ki)) was -45.0 ± 3.7 kJ/mol.
